Source: patent US6413953B1, “Pt(IV) antitumor agent” (AnorMED Inc., priority 1999, dated 2002)

Assay: Aqueous solubility at ambient conditions
Format: physicochemical
Details: for (SolPt(IV)/SolPt(II)): solubility ratio to cis-amminedichloro(2-methylpyridine)platinum(II)

| Compound | Ratio to Solubility of cis-ammine(2-methylpyridine)Dichloroplatinum (II) (ambient conditions) | (SolPt(IV)/SolPt(II)) | Aqueous Solubility (ambient conditions) | Ratio to Solubility of bis-butyrato-ammine-(cyclohexylamine)dichloro platinum (IV) (ambient conditions) | Ratio to Solubility of cisplatin (ambient conditions) |
| --- | --- | --- | --- | --- | --- |
| CC(=O)[O][Pt]([Cl])([O]C(C)=O)[O]C(C)=O.Cc1ccccn1.N [Compound D] | 114.3 | 114.3 |  |  |  |
| ammine(chloro)trihydroxo(2-methylpyridine)platinum(IV) [Compound A] | 114.3 | 114.3 | 80 mg/mL | 400 | 80 |
